Data reported in US20110044991A1, “METHODS AND COMPOSITIONS FOR TREATING LYMPHOMA AND MYELOMA” (IRM LLC, priority 2006, published 2011).

Test system: lymphoma cells (mixed, B-cell lymphoma, plasmacytoma, plasmoblastoma)
Experiment: Cytokine stimulation of lymphoma cells off stroma, Alamar Blue assay
Assay type: cell-based, mouse
Conditions: 2 days after stroma removal; cytokines 0-50 ng/ml; IL-6: plasmacytomas and mixed, IL-7: B-cell and mixed lymphomas, not plasmoblastomas
Description: Luminescence was measured after 0 h, 24 h and 48 h after seeding of 2×10E4 luciferased lymphoma cells on the stroma cells; and F: RT-PCR analysis of transcripts from Hh pathway members and targets in spleen lymphocytes and different lymphoma cell lines.
Cell culture experiments: Lymphoma cells were infected with a retrovirus containing a pMSCV IRES puro-luc sequence and selected for 7 days with puromycin on puromycin-resistant Cdkn2a−/− stroma. […] Both were dissolved as x 1,000 stocks in DMSO. SCF was obtained from RDI, and all other cytokines were obtained from R&D systems. 5E1 anti-ShhN monoclonal antibody was obtained from the developmental hybridoma bank and was used at a concentration of 10 μg/ml. For cytokine stimulation and Shh inhibition in supernatant lymphoma cells were seeded into 96-well plates at a density of 20,000 cells per well and mitochondrial activity of viable cells was measured with an Alamar Blue Assay as described.

B1: IL-3: cytokine / growth factor (protein, UniProt P08700 20-152, looked up)
Interleukin-3: APMTQTTPLKTSWVNCSNMIDEIITHLKQPPLPLLDFNNLNGEDQDILMENNLRRPNLEAFNRAVKSLQNASAIESILKNLLPCLPLATAAPTRHPIHIKDGDWNEFRRKLTFYLKTLENAQAQQTTLSLAIF
- number of viable lymphoma cells / survival after cytokine stimulation: no effect on lymphocyte growth
